Only some compounds are listed: those with a hit (about 1.9% of all), similar ones and a draw of the others.
Yeast UUG start – alters start codon recognition fidelity in yeast. 350,000 tested, 0.13% active. activity score, % at 18.7 µM. S. cerevisiae UUG-firefly luciferase reporter, luminescence/redox ratio;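 active = replicate mean at a twofold rise or more, about +100% in these data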;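 also: firefly luciferase made from a UUG start codon reports start codon fidelity; reporter light over untreated wells divided by growth signal over untreated wells; some hits fall short of that in this replicate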
ARNT-TACC3 inh – disruptors of human ARNT/TACC3 interaction; AlphaScreen His-ARNT PAS-B/GST-TACC3 binding, luminescence; TACC3 fragment carries E629A point mutation; AID 623870; Q9Y6A5; 390,000 compounds, 0.66% hits; inhibition, % at 9.99 µM;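 active = mean inhibition of replicates at least 50% and at least half of replicates each reaching 50%; inconclusive = half or more replicates reach 50% but mean below 50%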;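 note: 0% = complete ARNT plus TACC3 wells and 100% = ARNT alone without TACC3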
PDI inh – PDI (human) enzyme inhibition; PDI insulin aggregation turbidity, A650, 90 min; inhibition, % at 10 µM; 350,000 compounds, 0.052% hits; AID 588391;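 active = mean inhibition across replicates of 30% or more, whatever share of single replicates reach that level; inconclusive = mean inhibition below 30% while every single replicate reaches 30%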
ERp5 inh – inhibitors of human ERp5; 350,000 compounds, 0.05% hits; Q15084; inhibition, % at 9.99 µM; ERp5 insulin aggregation, absorbance 650 nm, 90 min; AID 651711;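 active = mean replicate inhibition above about 25%, with every replicate also reaching it, limit read from the data, passing the limit was not always enough; inconclusive = only one of those two criteria met; inactive = neither criterion met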
PglD DTNB – blocks C. jejuni PglD acetyltransferase activity. 360,000 compounds, 0.098% hits. purified PglD enzyme, DTNB colorimetric CoA detection. AID 602405. inhibition, % at 12.5 µM; in the data active = inhibition above about 16%, passing the limit was not always enough; inconclusive = no clear call, values can overlap the other calls
FGF22 binding – binders of recombinant human FGF22 by thermal shift; Q9HCT0; SYPRO orange fluorescence; percent of sucrose octasulfate shift, DMSO zero; activity (Tm shift, normalised), % at 9.99 µM; 340,000 compounds, 1.5% hits; AID 651658;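 active = mean Tm shift, scaled 0 neutral to 100 positive control, at about 1.3% or above, every replicate too, limit read from the data; inconclusive = no clear call, values can overlap the other calls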
Active calls of the source: *; ? = inconclusive; / = no result.

Short forms: A = Yeast UUG start; B = ARNT-TACC3 inh; C = PDI inh; D = ERp5 inh; E = PglD DTNB; F = FGF22 binding
COc1ccc2nc(/N=C/c3c(O)n(-c4cccc(Cl)c4)c(=O)[nH]c3=O)sc2c1
  A: /; B: 79*; C: -2; D: /; E: /; F: /
O=C(O)[C@H]1[C@H](CO)[C@H]2Cn3c(ccc(-c4cccnc4)c3=O)[C@@H]1N2S(=O)(=O)c1ccccc1F
  A: /; B: -16; C: /; D: 3; E: -1; F: 0
Nc1ccc2ccc3cccc[n+]3c2c1
  A: -27; B: -4; C: -5; D: 2; E: -15; F: 0
C[n+]1c(-c2ccccc2)c2cc(N)ccc2c2ccc(N)cc21
  A: -36; B: 47*; C: -9; D: 2; E: 2; F: -1
CCN1CCN(c2ccc(N)cc2C)CC1
  A: /; B: 48*; C: 2; D: 3; E: /; F: 1
Cn1ncnc2c(=O)n(C)c(=O)nc1-2
  A: -83; B: 39; C: 175*; D: /; E: -10; F: /
C[N+]1(C)C2CCC1CC(OC(=O)C(CO)c1ccccc1)C2 (centres undefined)
  A: 1; B: -8; C: 3; D: -2; E: -1; F: 43*
Cc1cc(C(=O)CN2CCCC2)c(C)n1-c1ccc(F)cc1
  A: 14; B: -1; C: -6; D: -5; E: 0; F: 0
COc1ccc(-n2c(C)cc(C(=O)C[N+]34CCN(CC3)CC4)c2C)cc1
  A: -13; B: 1; C: -4; D: 6; E: -3; F: 43*
COC(=O)[C@H]1[C@H](CO)[C@H]2Cn3c(ccc(-c4cccc(OC)c4)c3=O)[C@@H]1N2C(=O)c1ccccc1F
  A: /; B: -4; C: /; D: 2; E: 0; F: 0
CN(C(=O)Oc1cccc2ccccc12)C1C=CCC1 (centres undefined)
  A: 9; B: /; C: 0; D: -10; E: 0; F: 43*
COc1cc(C(=O)NN=Cc2ccc(N(CCCl)CCCl)cc2)cc(OC)c1OC
  A: -13; B: 4; C: 6; D: 14; E: -5; F: 44*
NC(Cc1ccc(O)cc1)C(=O)NN=Cc1ccc(N(CCCl)CCCl)cc1 (centres undefined)
  A: -8; B: -3; C: 24; D: 6; E: 3; F: 0
CCCCn1c(=O)c(C=Nc2ccc(Cl)cc2)c(O)n(Cc2ccco2)c1=O
  A: /; B: -4; C: 8; D: -2; E: /; F: 0
CCCCn1c(=O)c(C=Nc2cc([N+](=O)[O-])ccc2OC)c(O)n(CCCCl)c1=O
  A: /; B: /; C: -3; D: -5; E: /; F: 43*
O=S1(=O)CCN(CCc2c[nH]c3ccccc23)CC1
  A: /; B: -2; C: 4; D: ?; E: /; F: 43*
c1ccc2c(CN3CCCCCC3)c[nH]c2c1
  A: -15; B: -11; C: 0; D: 6; E: -4; F: 0
COc1cccc(C2(O)CCN(CC(=O)Nc3nc(C)cs3)CC2)c1
  A: /; B: 1; C: 4; D: 3; E: /; F: 43*
Cn1c(=O)c2c(nc(N/N=C/c3c(O)n(-c4ccccc4)c(=S)[nH]c3=O)n2C)n(C)c1=O
  A: -26; B: 58*; C: -5; D: /; E: 3; F: /
O=c1[nH]c(=S)n(-c2ccccc2)c(O)c1C=NCc1ccccn1
  A: -22; B: /; C: 5; D: -1; E: 2; F: 0
C=CCN1C(=S)N[C@@H]2c3ccccc3O[C@@]1(C)[C@@H]2C(=O)OCC
  A: -10; B: 1; C: /; D: 1; E: -1; F: 1
COc1ccc(C2C3C=CC(C3)C2C(=O)O)cc1 (centres undefined)
  A: /; B: /; C: 8; D: -1; E: /; F: 43*
COc1ccc(C[C@H]2NC[C@H](O)[C@H]2OC(C)=O)cc1
  A: -18; B: -4; C: 15; D: -3; E: 0; F: 0
CC1(CCO)CC(C)(CCc2ccccc2)OO1 (centres undefined)
  A: -5; B: -14; C: /; D: 1; E: 4; F: 1
O=C1NC(=O)C(Cc2ccccc2)(Cc2ccccc2)C(=O)N1
  A: /; B: -8; C: -12; D: -2; E: /; F: 0

The final two compounds of the part before are carried over, then new ones follow.
Short forms: A = Yeast UUG start; B = ARNT-TACC3 inh; C = PDI inh; D = ERp5 inh; E = PglD DTNB; F = FGF22 binding
CC1(CCO)CC(C)(CCc2ccccc2)OO1 (centres undefined)
  A: -5; B: -14; C: /; D: 1; E: 4; F: 1
O=C1NC(=O)C(Cc2ccccc2)(Cc2ccccc2)C(=O)N1
  A: /; B: -8; C: -12; D: -2; E: /; F: 0
O=C1NC(=O)C(Nc2ccccc2)C(=O)N1
  A: -10; B: 33*; C: 13; D: 2; E: 5; F: 0
C=CC1CN2CCC1C[C@@H]2CO (some centres undefined)
  A: /; B: /; C: /; D: -1; E: /; F: 0
O=C(Cc1ccccc1)N1CCCCN2[C@@H](CO)[C@@H](c3ccc(C#Cc4ccccc4)cc3)[C@@H]2C1
  A: 2; B: -19; C: /; D: -1; E: -8; F: -1
Cc1ccc(OP2(=O)Nc3cc(C)c(C)cc3S2)cc1 (centres undefined)
  A: -24; B: 46*; C: -4; D: 5; E: 6; F: 0
Cc1ccc2c(c1)NP(=S)(Oc1ccccc1)N2 (centres undefined)
  A: -19; B: 1; C: -4; D: 3; E: -2; F: 0
COC(=O)[C@H]1[C@H](CO)[C@H]2Cn3c(ccc(C4=CCCC4)c3=O)[C@@H]1N2S(=O)(=O)c1cn(C)cn1
  A: /; B: -1; C: /; D: -7; E: -2; F: 0
C=CCNC(=S)/N=C/c1c(O)[nH]c(=O)[nH]c1=O
  A: /; B: /; C: 4; D: 6; E: /; F: 0
NC(=S)/N=C/c1c(O)[nH]c(=O)[nH]c1=O
  A: /; B: 30; C: -7; D: 4; E: /; F: 43*
Cc1c(N=Cc2c(O)n(Cc3ccccc3)c(=O)[nH]c2=O)c(=O)n(-c2ccccc2)n1C
  A: /; B: /; C: 2; D: 0; E: /; F: 0
Cc1c(N=Nc2c(O)n(Cc3ccccc3)c(=O)[nH]c2=O)c(=O)n(-c2ccccc2)n1C
  A: -27; B: 62*; C: -3; D: /; E: 5; F: /
CCCCC1(CCC)C(=O)NC(=S)NC1=O
  A: -10; B: -6; C: -2; D: 2; E: -1; F: 43*
Cc1ccc(OP(=O)(NC(C)c2ccccc2)Oc2ccc(C)cc2)cc1 (centres undefined)
  A: /; B: -10; C: 4; D: -4; E: /; F: 43*
Cc1ccc(NP(=O)(Oc2ccccc2)Oc2ccccc2)cc1
  A: 21; B: -6; C: 1; D: 2; E: 2; F: 0
CC=Cc1ccc2n(c1=O)C[C@H]1[C@H](CO)[C@@H](C(=O)N(C)C)[C@@H]2N1C (mixture of isomers)
  A: /; B: -1; C: /; D: -3; E: -2; F: 0
COC(=O)[C@@H]1C[C@H]1[C@@H](NP(=O)(c1ccccc1)c1ccccc1)c1ccccc1
  A: -17; B: 4; C: 10; D: 1; E: 2; F: 0
COC(=O)[C@H]1C[C@@H]1[C@H](NP(=O)(c1ccccc1)c1ccccc1)c1ccccc1
  A: -15; B: /; C: -1; D: 1; E: 0; F: 1.8*
N#Cc1cccc(-c2ccc([C@@H]3[C@@H](CO)N4CCCCN(C(=O)Cc5cccnc5)C[C@@H]34)cc2)c1
  A: -19; B: 6; C: /; D: -7; E: 2; F: 0
c1ccc(C2(NC3=NCCO3)CCCCC2)cc1
  A: -13; B: /; C: 4; D: 8; E: 2; F: 43*
CNCC1(c2ccccc2)CCCC1
  A: -17; B: -6; C: -2; D: /; E: 0; F: /
Cc1cc(OCC(=O)NCc2ccncc2)c2c3c(c(=O)oc2c1)CCC3
  A: -21; B: -6; C: 4; D: 4; E: -8; F: 0
Cc1cc(OCC(=O)NCc2ccc(S(N)(=O)=O)cc2)c2c3c(c(=O)oc2c1)CCC3
  A: -18; B: -2; C: 1; D: 28*; E: -4; F: 0
CNC(=O)Oc1cc2c(cc1C(C)(C)C)CCC2
  A: -6; B: -4; C: 5; D: 5; E: 5; F: 44*
O=C(Cc1cccnc1)N1CCCCN2[C@H](C1)[C@H](c1ccc(C#CC3CC3)cc1)[C@@H]2CO
  A: 2; B: /; C: /; D: 0; E: 1; F: 0
O=C(N/N=C/C1C(=O)NC(=S)N(c2ccccc2)C1=O)c1cc(Br)c(O)c(Br)c1 (centres undefined)
  A: /; B: 65*; C: 1; D: 1; E: /; F: 0

Of the compounds above, 3 have fluorine:
Short forms: A = Yeast UUG start; B = ARNT-TACC3 inh; C = PDI inh; D = ERp5 inh; E = PglD DTNB; F = FGF22 binding
O=C(O)[C@H]1[C@H](CO)[C@H]2Cn3c(ccc(-c4cccnc4)c3=O)[C@@H]1N2S(=O)(=O)c1ccccc1F
  A: /; B: -16; C: /; D: 3; E: -1; F: 0
Cc1cc(C(=O)CN2CCCC2)c(C)n1-c1ccc(F)cc1
  A: 14; B: -1; C: -6; D: -5; E: 0; F: 0
COC(=O)[C@H]1[C@H](CO)[C@H]2Cn3c(ccc(-c4cccc(OC)c4)c3=O)[C@@H]1N2C(=O)c1ccccc1F
  A: /; B: -4; C: /; D: 2; E: 0; F: 0

Compound activity: PubChem BioAssay, Broad Institute
